# Measured values taken from ChEMBL document CHEMBL1129461 (J Med Chem, 1996).
# Biological target: T1, Protein kinase C epsilon type (Homo sapiens, UniProt Q02156)
# T1 sequence (Q02156 whole entry): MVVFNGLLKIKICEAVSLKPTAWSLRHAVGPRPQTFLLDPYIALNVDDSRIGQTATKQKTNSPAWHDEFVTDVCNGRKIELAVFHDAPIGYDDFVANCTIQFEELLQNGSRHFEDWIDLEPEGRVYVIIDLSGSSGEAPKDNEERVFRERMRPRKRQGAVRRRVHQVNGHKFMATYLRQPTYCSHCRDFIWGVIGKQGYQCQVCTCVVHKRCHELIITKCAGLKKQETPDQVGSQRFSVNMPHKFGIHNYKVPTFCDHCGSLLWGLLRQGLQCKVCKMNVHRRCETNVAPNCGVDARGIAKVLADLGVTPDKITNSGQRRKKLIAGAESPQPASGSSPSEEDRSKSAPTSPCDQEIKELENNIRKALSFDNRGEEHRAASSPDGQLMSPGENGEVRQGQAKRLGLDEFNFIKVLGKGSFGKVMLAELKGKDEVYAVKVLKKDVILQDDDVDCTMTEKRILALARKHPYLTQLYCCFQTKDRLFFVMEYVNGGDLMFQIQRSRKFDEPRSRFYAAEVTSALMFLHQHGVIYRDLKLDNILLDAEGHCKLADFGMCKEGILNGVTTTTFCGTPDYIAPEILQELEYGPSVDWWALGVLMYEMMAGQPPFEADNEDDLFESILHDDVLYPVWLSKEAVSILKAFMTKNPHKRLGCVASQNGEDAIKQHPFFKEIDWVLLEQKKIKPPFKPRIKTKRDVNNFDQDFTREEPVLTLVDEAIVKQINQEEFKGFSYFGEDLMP
# Test: Evaluated against recombinant human Protein kinase C epsilon
# How it was run: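 Recombinant human PKC isozymes expressed in SF9 cells via baculovirus, partly purified (50–90%). 32P transfer from 30 μM [32P]ATP to 200 μg/mL histone IIIS in 20 mM Hepes pH 7.5, 10 mM MgCl2, EGTA, CaCl2, phosphatidylserine, and diacylglycerol at the isozyme-dependent level giving half-maximal activation. 10 min at 30 °C, TCA stop, filter counting. No-lipid background subtracted.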
structure (smiles),measurement,value
O=C(NC1CNCCCC1OC(=O)c1cc(O)c(C(=O)c2c(O)cccc2C(=O)O)c(O)c1)c1ccc(O)cc1 (racemic),IC50,38 nM
